pIC50: −log10 of the molar value.

Protein sequences, listed by entry. Tags and fused reporters are not part of them. Residues count along the entry.
UniProt P00533, 25-1210 T790M/C797S/L858R limits assumed: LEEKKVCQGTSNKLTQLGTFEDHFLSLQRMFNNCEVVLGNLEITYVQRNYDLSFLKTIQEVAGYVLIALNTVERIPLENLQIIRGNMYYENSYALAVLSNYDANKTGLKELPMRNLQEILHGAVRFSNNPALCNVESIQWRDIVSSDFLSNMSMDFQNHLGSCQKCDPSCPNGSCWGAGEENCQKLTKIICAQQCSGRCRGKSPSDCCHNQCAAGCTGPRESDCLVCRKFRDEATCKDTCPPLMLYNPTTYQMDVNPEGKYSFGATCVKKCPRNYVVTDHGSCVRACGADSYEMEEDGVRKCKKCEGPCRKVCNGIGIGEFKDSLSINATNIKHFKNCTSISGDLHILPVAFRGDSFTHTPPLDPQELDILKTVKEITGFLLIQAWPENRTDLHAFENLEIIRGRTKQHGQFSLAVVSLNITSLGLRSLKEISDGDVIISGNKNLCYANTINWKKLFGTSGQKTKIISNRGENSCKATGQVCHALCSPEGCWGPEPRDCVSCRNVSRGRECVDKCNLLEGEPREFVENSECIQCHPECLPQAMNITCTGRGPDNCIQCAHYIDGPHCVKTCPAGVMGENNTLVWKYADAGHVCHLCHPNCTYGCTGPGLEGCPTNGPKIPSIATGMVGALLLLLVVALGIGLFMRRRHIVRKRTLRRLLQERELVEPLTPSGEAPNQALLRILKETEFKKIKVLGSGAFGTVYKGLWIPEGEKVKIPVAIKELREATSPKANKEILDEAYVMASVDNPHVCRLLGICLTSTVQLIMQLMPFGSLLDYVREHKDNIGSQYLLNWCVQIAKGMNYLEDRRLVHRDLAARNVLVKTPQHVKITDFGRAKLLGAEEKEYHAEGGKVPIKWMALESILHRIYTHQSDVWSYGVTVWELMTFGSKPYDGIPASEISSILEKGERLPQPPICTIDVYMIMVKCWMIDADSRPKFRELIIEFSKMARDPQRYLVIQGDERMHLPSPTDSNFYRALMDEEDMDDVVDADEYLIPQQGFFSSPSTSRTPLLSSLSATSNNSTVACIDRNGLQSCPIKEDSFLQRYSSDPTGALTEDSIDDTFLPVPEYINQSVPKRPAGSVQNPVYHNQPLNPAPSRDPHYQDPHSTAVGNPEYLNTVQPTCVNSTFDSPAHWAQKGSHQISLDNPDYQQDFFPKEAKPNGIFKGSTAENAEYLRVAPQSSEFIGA

This experiment deals with Epidermal growth factor receptor [L858R,T790M,C797S] (Homo sapiens, UniProt P00533, C797S/L858R/T790M). The experiment can be described thus: EGFR kinase Enzymatic Activity Test 1.

With `COc1cc(N2CCC(N3CCN(C)CC3)CC2)c(C)cc1Nc1ncc(Br)c(Nc2ccc(C)cc2P(C)(C)=O)n1` [US20230322822, Compound 2], the pIC50 – broadly, the negative decadic logarithm of the IC50, by convention in mol/L – was 7.67.

The values above are taken from BindingDB's records for patent US20230322822 (Chengdu Di''Ao Jiuhong Pharmaceutical Factory, 2023).
